We go through ten compounds from ChEMBL document CHEMBL5518170, “Dual target PARP1/EZH2 inhibitors inducing excessive autophagy and producing synthetic lethality for triple-negative breast cancer therapy” (Eur J Med Chem, 2024).

The chains behind the UniProt entries cited, without tags or fusion partners.
UniProt P09874, whole entry: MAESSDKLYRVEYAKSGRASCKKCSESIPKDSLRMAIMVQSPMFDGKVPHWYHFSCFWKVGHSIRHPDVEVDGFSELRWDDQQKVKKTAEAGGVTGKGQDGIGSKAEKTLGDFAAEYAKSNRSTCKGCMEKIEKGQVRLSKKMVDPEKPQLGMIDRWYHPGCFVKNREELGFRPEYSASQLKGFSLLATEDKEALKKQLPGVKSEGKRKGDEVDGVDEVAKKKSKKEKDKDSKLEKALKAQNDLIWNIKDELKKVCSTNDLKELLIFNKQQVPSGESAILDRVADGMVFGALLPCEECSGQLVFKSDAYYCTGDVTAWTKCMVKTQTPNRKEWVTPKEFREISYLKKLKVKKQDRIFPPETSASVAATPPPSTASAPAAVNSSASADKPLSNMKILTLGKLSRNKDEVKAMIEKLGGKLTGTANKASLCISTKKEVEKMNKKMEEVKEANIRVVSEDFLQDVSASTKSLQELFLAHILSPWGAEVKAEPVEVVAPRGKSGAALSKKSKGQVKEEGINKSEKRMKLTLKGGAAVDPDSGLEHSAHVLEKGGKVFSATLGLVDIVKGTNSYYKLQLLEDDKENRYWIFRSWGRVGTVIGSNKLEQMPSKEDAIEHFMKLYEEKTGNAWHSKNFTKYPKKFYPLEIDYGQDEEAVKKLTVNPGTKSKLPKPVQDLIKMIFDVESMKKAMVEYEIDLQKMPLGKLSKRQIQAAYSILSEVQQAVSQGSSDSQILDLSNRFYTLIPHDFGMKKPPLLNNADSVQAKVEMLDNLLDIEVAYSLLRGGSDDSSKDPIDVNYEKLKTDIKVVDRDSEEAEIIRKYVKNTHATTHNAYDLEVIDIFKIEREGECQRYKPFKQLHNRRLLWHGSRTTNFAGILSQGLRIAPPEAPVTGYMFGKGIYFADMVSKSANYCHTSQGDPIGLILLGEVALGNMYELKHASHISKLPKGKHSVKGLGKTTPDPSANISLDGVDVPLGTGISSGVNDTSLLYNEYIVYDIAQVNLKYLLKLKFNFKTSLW
UniProt Q15910, whole entry, looked up: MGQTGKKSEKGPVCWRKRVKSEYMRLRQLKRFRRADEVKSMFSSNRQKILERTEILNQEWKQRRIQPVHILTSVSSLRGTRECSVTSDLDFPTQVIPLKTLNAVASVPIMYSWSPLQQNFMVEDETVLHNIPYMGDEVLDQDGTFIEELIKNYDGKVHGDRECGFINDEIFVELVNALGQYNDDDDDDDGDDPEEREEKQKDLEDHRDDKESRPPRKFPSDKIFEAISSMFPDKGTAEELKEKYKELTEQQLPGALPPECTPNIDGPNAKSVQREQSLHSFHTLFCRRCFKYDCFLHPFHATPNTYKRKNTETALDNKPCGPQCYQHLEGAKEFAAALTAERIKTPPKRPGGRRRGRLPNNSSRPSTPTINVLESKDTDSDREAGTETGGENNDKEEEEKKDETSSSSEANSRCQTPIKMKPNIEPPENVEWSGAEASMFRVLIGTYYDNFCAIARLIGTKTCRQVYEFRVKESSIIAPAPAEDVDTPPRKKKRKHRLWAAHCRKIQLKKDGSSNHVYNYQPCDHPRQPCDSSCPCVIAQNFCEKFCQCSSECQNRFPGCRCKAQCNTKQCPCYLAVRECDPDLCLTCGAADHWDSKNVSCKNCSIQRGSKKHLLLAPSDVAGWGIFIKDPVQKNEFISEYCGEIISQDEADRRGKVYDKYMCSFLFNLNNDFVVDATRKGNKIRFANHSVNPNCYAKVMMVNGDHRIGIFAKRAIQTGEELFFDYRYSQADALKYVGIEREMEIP

In assay [1] the target is Poly [ADP-ribose] polymerase 1 (Homo sapiens) (UniProt P09874). The settings on record: dose 20.0 nM, time 70.0 min.
Assay [2] shares this target. The conditions noted are these: dose 100.0 nM, time 70.0 min.
The target of assay [3] is Histone-lysine N-methyltransferase EZH2 (Homo sapiens) (UniProt Q15910).
The target is the same in assay [4]. The source holds these as a separate data set.

The structures appear in SMILES notation.

Take `CCn1ncc2c(C(=O)NCc3c(C)cc(C)[nH]c3=O)cc(-c3ccc(-c4nc5c(C(N)=O)cccc5[nH]4)cc3)cc21`: the values for the inhibition in assay [1] and in assay [2] were 2.52% and 20.4%, respectively.

On to `Cc1cc(C)c(CNC(=O)c2cc(-c3ccc(Cc4nc5c(C(N)=O)cccc5[nH]4)cc3)cc3c2cnn3C(C)C)c(=O)[nH]1`, for which the inhibition was found to be 42.1% in assay [1] and 68.3% in assay [2].

In the case of `CCNc1cc(-c2ccc(-c3nc4c(C(N)=O)cccc4[nH]3)cc2)cc(C(=O)NCc2c(C)cc(C)[nH]c2=O)c1C`, the inhibition in assay [1] turned out to be 9.04%; in assay [2] it was 33.9%.

Take `CCn1ccc2c(C(=O)NCc3c(C)cc(C)[nH]c3=O)cc(-c3ccc(Cc4nc5c(C(N)=O)cccc5[nH]4)cc3)cc21`: the inhibition in assay [1] was determined as 2.12%; in assay [2], 11.4%.

For the compound `CC(=O)Nc1cc(-c2ccc(Cc3nc4c(C(N)=O)cccc4[nH]3)cc2)cc(C(=O)NCc2c(C)cc(C)[nH]c2=O)c1C`, the inhibition is 8.53% in assay [1] and 36.5% in assay [2].

`CC[C@H](C)n1cc(C)c2c(C(=O)NCc3c(C)cc(C)[nH]c3=O)cc(-c3ccc(N4CCNCC4)nc3)cc21` [GSK2816126]: the Kdiss in assay [3] turned out to be 0.035 s⁻¹. In assay [4], the Ka was 5.83 10^5/M/s.

With `CCNc1cc(-c2ccc(Cc3nc4c(C(N)=O)cccc4[nH]3)cc2)cc(C(=O)NCc2c(C)cc(C)[nH]c2=O)c1C`, the inhibition in assay [2] came out at 42.1%.

Take `Cc1cc(C)c(CNC(=O)c2cc(-c3ccc(-c4nc5c(C(N)=O)cccc5[nH]4)cc3)cc3c2ccn3C(C)C)c(=O)[nH]1`: the values for the inhibition in assay [1] and in assay [2] were 15.7% and 17.2%, respectively.

Consider `CC(=O)Nc1cc(-c2ccc(-c3nc4c(C(N)=O)cccc4[nH]3)cc2)cc(C(=O)NCc2c(C)cc(C)[nH]c2=O)c1C`, for which the inhibition was 25.9% in assay [1] and 39% in assay [2].

Turning to `CCC(=O)Nc1cc(-c2ccc(-c3nc4c(C(N)=O)cccc4[nH]3)cc2)cc(C(=O)NCc2c(C)cc(C)[nH]c2=O)c1C`, the inhibition in assay [1] came out at 12.2%; in assay [2] it was 47.9%.

What is called inhibition is the change of the read-out against control, counted positive when it falls. A lower inhibition goes with a response near the control.
